Test results: article PMC8998617
Read-outs that look alike come from different tables or passages of the source.

Sequences of proteins named here, by UniProt entry; tags and fusion partners are left off. Residues count along the entry.
UniProt P52948, 1-498: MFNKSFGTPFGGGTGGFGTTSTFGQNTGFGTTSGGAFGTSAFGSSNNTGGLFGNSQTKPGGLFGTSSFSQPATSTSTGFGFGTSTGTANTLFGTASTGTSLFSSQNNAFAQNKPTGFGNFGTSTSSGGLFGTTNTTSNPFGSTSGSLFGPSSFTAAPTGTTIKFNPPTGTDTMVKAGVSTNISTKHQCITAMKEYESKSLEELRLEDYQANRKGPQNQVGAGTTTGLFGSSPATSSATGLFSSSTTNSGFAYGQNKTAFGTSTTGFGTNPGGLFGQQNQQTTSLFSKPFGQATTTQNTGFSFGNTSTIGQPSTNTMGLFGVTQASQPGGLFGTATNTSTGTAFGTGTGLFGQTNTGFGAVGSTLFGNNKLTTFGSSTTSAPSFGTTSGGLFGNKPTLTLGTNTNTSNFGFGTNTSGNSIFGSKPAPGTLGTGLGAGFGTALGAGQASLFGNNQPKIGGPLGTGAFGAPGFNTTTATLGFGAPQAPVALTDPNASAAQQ

What was measured:
[1] = biological target: His-tagged Nup98-FG (aa 1-498), immobilised on BLI biosensors (UniProt P52948); assay: BLI; BLItz instrument; His-tagged Nup98-FG immobilised on Ni-NTA or HIS biosensors; Tau variants (fresh, monomeric; 1, 2 and 4 µM) in PBS
[2] = biological target: Nup98-FG (N-terminal FG-domain of Nup98, aa 1-498) with one additional N-terminal cysteine, tethered to the SPR gold chip (UniProt P52948); assay: SPR; Biacore T200; Nup98-FG or Nup98-FG/FS tethered by its N-terminal cysteine to the gold sensor chip; Tau proteins injected at increasing concentrations in PBS; BSA injected after each Tau injection; equilibrium constants from one- or two-component Langmuir fits
[3] = biological target: Nup98-FG (N-terminal FG-domain of Nup98, aa 1-498) with one additional N-terminal cysteine, tethered to the SPR gold chip (UniProt P52948); assay: as above; remark: listed apart in the source

| Kd [1] [µM] | Kd [2] [µM] | Kd [3] [µM] | Substance |
| --- | --- | --- | --- |
| 0.86 | 0.4 | 1.13 | recombinant human full-length Tau (2N4R, 441 aa), non-phosphorylated (from UniProt P10636-8 1-441) (natural protein) |
| – | – | 12.2 | phosphorylated Tau (P-Tau), human full-length Tau 2N4R purified from insect cells (from UniProt P10636-8 1-441) (natural protein) |
